Results published in US6977259B2, “Quinoline derivatives and their use as aurora 2 kinase inhibitors” (AstraZeneca AB, priority 2000, dated 2005).

Chains of the proteins cited; added tags and fusions are not shown.
UniProt O14965, whole entry: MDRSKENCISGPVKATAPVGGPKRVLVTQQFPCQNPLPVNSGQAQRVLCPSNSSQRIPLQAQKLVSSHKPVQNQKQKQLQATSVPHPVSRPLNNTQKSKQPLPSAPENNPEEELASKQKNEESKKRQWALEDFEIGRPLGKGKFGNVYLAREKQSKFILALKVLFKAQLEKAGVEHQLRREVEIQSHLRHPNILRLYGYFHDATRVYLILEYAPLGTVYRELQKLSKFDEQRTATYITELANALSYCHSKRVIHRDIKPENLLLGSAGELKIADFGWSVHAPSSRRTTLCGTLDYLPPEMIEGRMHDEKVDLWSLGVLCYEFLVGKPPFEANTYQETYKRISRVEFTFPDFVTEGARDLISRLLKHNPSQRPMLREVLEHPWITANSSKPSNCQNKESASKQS

Key:
aurora2 kinase = aurora2 kinase (Homo sapiens, UniProt O14965); assay: In vitro aurora2 kinase inhibition test; details: read-out: concentration giving 50% inhibition of enzyme activity; recombinant tagged aurora2, 33P-ATP, peptide substrate, 60 minutes at room temperature
Text: (a) In Vitro Aurora2 Kinase Inhibition Test This assay determines the ability of a test compound to inhibit serine/threonine kinase activity. DNA encoding aurora2 may be obtained by total gene synthesis or by cloning. This DNA may then be expressed in a suitable expression system to obtain polypeptide with serine/threonine kinase activity. In the case of aurora2, the coding sequence was isolated from cDNA by polymerase chain reaction (PCR) and cloned into the BamH1 and Not1 restriction endonuclease sites of the baculovirus expression vector pFastBac HTc (GibcoBRL/Life technologies). The 5′ PCR primer contained a recognition sequence for the restriction endonuclease BamH1 5′ to the aurora2 coding sequence. This allowed the insertion of the aurora2 gene in frame with the 6 histidine residues, spacer region and rTEV protease cleavage site encoded by the pFastBac HTc vector. The 3′ PCR primer replaced the aurora2 stop codon with additional coding sequence followed by a stop codon and a recognition sequence for the restriction endonuclease Not1. This additional coding sequence (5′ […] 3′) encoded for the polypeptide sequence YPYDVPDYAS. This sequence, derived from the influenza hemagglutin protein, is frequently used as a tag epitope sequence that can be identified using specific monoclonal antibodies. […]

MCF-7 cells = assay: In vitro cell proliferation assay II (BrdU incorporation); details: read-out: concentration giving 50% inhibition of BrdU incorporation; MCF-7, 48 hours with compound, 2 hour BrdU labelling, ELISA
Text: (b) In Vitro Cell Proliferation Assays
These and other assays can be used to determine the ability of a test compound to inhibit the growth of adherent mammalian cell lines, for example the human tumour cell line MCF7.
This assay determines the ability of at test compound to inhibit the incorporation of the thymidine analogue, 5′-bromo-2′-deoxy-uridine (BrdU) into cellular DNA. MCF-7 or other adherent cells were typically seeded at 0.8×10^4 cells per well in DMEM (Sigma Aldrich) without phenol red, plus 10% foetal calf serum, 1% L-glutamine and 1% penicillin/streptomycin (50 μl/well) in 96 well tissue culture treated 96 well plates (Costar) and allowed to adhere overnight. […] The optical density of the wells was then determined at 690 nm wavelength using a Titertek Multiscan plate reader. […]

Compound `N#Cc1cc2c(Nc3cnc(NC(=O)c4ccccc4)nc3)ccnc2cc1OCCCN1CCOCC1` has a pIC50 (aurora2 kinase) of 7.28 and a pIC50 (MCF-7 cells) of 6.44.

pIC50: −log10 of the molar value.
